We go through 1 molecule from patent US9415040B2 (priority 2008, dated 2016).

Sequences of proteins named here, by UniProt entry; tags and fusion partners are left off. A change or cut given only in a name is not applied to a line headed by its entry.
UniProt P0C5S6: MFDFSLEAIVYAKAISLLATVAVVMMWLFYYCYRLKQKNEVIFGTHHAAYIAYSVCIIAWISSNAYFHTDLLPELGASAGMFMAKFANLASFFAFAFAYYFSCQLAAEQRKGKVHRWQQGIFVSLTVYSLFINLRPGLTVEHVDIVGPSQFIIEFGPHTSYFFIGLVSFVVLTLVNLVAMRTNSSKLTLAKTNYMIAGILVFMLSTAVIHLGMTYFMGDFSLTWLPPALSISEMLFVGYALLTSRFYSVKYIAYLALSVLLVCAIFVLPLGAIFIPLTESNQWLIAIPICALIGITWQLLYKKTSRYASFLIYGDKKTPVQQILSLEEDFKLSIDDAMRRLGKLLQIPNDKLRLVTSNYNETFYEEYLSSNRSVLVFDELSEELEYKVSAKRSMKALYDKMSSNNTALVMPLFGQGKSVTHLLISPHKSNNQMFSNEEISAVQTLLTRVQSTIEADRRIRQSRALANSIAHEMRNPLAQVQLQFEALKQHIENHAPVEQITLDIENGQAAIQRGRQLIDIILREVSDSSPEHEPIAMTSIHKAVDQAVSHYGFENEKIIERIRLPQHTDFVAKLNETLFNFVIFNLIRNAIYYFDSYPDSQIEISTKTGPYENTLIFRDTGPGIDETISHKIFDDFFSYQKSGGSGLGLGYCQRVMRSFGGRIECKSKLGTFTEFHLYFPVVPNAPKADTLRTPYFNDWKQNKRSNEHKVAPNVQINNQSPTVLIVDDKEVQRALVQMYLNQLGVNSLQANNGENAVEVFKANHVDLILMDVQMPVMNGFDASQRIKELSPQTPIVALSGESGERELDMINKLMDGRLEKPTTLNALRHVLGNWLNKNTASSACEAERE

This assay addresses LuxN (Vibrio harveyi, UniProt P0C5S6).

Structures are written as SMILES. pIC50: −log10 of the molar value.

In turn, `CC(=O)N1CCc2cc(S(=O)(=O)NC(CC(C)C)C(=O)NCc3ccc(Cl)cc3)ccc21` (stereo not shown) [Antagonist C450-0730] had a pIC50 of 5.57.

One may read the pIC50 as the IC50 on a negative log10 scale, so that one unit is a factor of ten. A lower pIC50 goes with a large IC50.
